# scFv variants of Ab-95 (light chain) against a SARS-CoV-2 spike peptide

Values reported by Engelhart et al. 2022, doi:10.1038/s41597-022-01779-4 (FLAb copy).

The target is the same throughout: PDVDLGDISGINAS, from the HR2 region of SARS-CoV-2 spike.

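AAYL52 was designed without a model: most single CDR substitutions and a random sample of double and triple ones. In AlphaSeq, yeast of one mating type display the scFv and yeast of the other type display the target. Pairs that bind mate more often; barcode pairs of the diploids are counted by sequencing. Scores were corrected for input abundance and mapped to Kd with protein pairs of known affinity run in the same pool. The assay was run in three technical replicates.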

Ab-95 is the parent antibody, in scFv form: VH, then three GGGGS repeats, then VL. The heavy chain is unchanged in all variants.
VH: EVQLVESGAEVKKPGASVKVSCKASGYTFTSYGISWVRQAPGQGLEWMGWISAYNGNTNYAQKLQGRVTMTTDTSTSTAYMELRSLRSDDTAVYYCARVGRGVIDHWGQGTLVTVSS
VL: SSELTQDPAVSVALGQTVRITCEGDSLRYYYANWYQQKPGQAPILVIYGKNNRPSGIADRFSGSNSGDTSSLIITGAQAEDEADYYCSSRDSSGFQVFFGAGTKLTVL

Positions count from residue 1 of the parent VL; S55Y puts Y in place of S. Every variant below is changed at D91 of the VL (sequential numbering). Kd is apparent (estimated from mating counts) and averaged on the log scale over replicates with a signal. Smaller is tighter. A pair that was not seen in any replicate is written "no signal"; this usually means weak binding, but a binder can also be missed. Nonspecific signal, from three strains lacking the peptide, appeared in 28% of pairings of library AAYL52, centred on 8.2 µM (5% of these signals below 800 nM); values are not corrected for it. Parent in this assay: reference entry 200 nM, copy in this library 180 nM.

Variant S55Y/D91I/S93M gave no signal (0 of 3 replicates). Variant R53Y/D91H/F95W gave 2.3 µM (2 of 3 replicates). Variant S26F/P54Y/D91Q gave no signal (0 of 3 replicates). For R28Y/Y31W/D91N, the assay gave 12 µM (2 of 3 replicates). For K50W/S55D/D91S, the assay gave 10 µM (2 of 3 replicates). For P54A/S55W/D91G, the assay gave 880 nM (3 of 3 replicates).

Variant D91M gave 78 nM (3 of 3 replicates). Variant N51M/P54F/D91E showed 130 µM (1 of 3 replicates). Variant S26A/L27F/D91L gave 5.4 µM (3 of 3 replicates). With Y31H/S55G/D91M the result was 590 nM (3 of 3 replicates). For D91G, the assay gave 110 nM (3 of 3 replicates). Variant N52F/D91A/S92D gave 910 nM (3 of 3 replicates).

With K50H/D91W/G94K the result was no signal (0 of 3 replicates). Variant G24A/D25C/D91K showed no signal (0 of 3 replicates). Variant D25K/K50Q/D91M showed 510 nM (3 of 3 replicates). Variant S55L/D91A/S93I showed 6.6 µM (2 of 3 replicates). Variant S26E/P54E/D91L gave no signal (0 of 3 replicates). Variant R28H/D91W/S93G showed 710 nM (3 of 3 replicates).

Variant Y29G/A32G/D91A gave 39 nM (3 of 3 replicates). Variant G49R/D91T showed 4.4 µM (1 of 3 replicates). Variant R28E/S55I/D91W gave 610 nM (3 of 3 replicates). For R90P/D91I/Q96F, the assay gave 340 nM (3 of 3 replicates). Variant R90L/D91M/V97C showed no signal (0 of 3 replicates). With K50G/D91I/S92G the result was 1.7 µM (2 of 3 replicates).

Variant N33Y/S55C/D91S gave 13 µM (1 of 3 replicates). With E23F/G24Y/D91W the result was 12 µM (2 of 3 replicates). With L27I/S55L/D91V the result was 3.6 µM (3 of 3 replicates). With K50Q/S89C/D91E the result was 550 nM (3 of 3 replicates). Variant E23K/D91S showed 41 nM (3 of 3 replicates). Variant L27V/Y31A/D91W gave 17 µM (1 of 3 replicates).

Variant S88T/D91R/F95Y showed 120 nM (3 of 3 replicates). Variant R53W/D91W/S93A showed 5.1 µM (1 of 3 replicates). With E23N/N51Q/D91S the result was 710 nM (3 of 3 replicates). With P54K/D91F/F98N the result was no signal (0 of 3 replicates). With R28E/A32Q/D91I the result was no signal (0 of 3 replicates). Variant S88Y/D91A/F95Q gave 930 nM (1 of 3 replicates).

For Y29S/D91Q/F95I, the assay gave 530 nM (3 of 3 replicates). Variant L27K/N51W/D91S showed no signal (0 of 3 replicates). Variant N33V/D91V/Q96K gave 21 µM (1 of 3 replicates). With D91N/S93I/Q96T the result was 1.6 µM (3 of 3 replicates). Variant S55M/D91L showed 730 nM (3 of 3 replicates). For G24Q/D91F/F95M, the assay gave 1.7 µM (1 of 3 replicates).

Variant G24K/D91P/G94P gave 1.6 µM (3 of 3 replicates). With Y29L/P54A/D91A the result was 610 nM (3 of 3 replicates). With S55Q/S88K/D91F the result was 11 µM (2 of 3 replicates). With S88Q/S89P/D91W the result was 4.0 µM (1 of 3 replicates).

From the list, the first 6 with no signal in any replicate:

For S55Y/D91I/S93M, the assay gave no signal (0 of 3 replicates).
For S26F/P54Y/D91Q, the assay gave no signal (0 of 3 replicates).
For K50H/D91W/G94K, the assay gave no signal (0 of 3 replicates).
For G24A/D25C/D91K, the assay gave no signal (0 of 3 replicates).
For S26E/P54E/D91L, the assay gave no signal (0 of 3 replicates).
For R90L/D91M/V97C, the assay gave no signal (0 of 3 replicates).